Earlier results in patent US20250161269A1 (Celmatix Inc., priority 2022, published 2025).

Amino acid sequences for entries named in this document (tags omitted). Residues count along the entry.
UniProt P28335, 33-458: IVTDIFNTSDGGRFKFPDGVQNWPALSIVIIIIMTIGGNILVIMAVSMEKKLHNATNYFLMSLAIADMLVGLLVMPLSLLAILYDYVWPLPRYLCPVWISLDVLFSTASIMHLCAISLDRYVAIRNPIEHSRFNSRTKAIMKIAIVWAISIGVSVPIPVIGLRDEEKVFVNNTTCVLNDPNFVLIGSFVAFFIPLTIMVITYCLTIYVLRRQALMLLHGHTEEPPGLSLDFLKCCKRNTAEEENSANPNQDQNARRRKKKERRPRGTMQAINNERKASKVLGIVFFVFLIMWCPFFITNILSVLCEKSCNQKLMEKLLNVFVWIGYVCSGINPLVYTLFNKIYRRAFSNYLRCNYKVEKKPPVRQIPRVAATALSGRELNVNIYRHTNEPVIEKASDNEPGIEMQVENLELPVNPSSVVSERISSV

Target: serotonin 5-HT2C receptor (Homo sapiens, UniProt P28335)
Conditions: antagonist; cited from earlier work

## COc1ccc2cccc(CCNC(C)=O)c2c1 [Agomelatine]
  Ki: 0.631 µM
